Compound activity from PubChem.
The list is not random: actives were taken first. Their share in the collection is about 2.8%.
esBAF inh: SWI/SNF esBAF complex inhibition | mouse ES cells, Bmi1-luciferase knock-in reporter, 24 h; 100% = twice the neutral-well signal | reporter increase, % at 12.5 µM | 2% of 350,000 active | AID 602393; in the data active means activation above about 40%; inconclusive means no clear call, values can overlap the other calls;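 further: 0% = median of the plate's neutral control wells and 100% = double that signal; a rise in the Bmi1 reporter signal indicates esBAF inhibition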
Yeast UUG start: modulators of yeast start codon fidelity, primary screen, whole organism, S. cerevisiae, single point, plate reader | AID 602363, 2012 | actives 0.13% (n = 350,000) | activity score, % at 18.7 µM | S. cerevisiae UUG-firefly luciferase reporter, luminescence/redox ratio;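 active means replicate mean at a twofold rise or more, about +100% in these data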;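 further: firefly luciferase made from a UUG start codon reports start codon fidelity; reporter light over untreated wells divided by growth signal over untreated wells; some hits fall short of that in this replicate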
PGC1a acetyl inh: lowers PGC1a acetylation signal in U2OS cells; AlphaScreen anti-acetyl-lysine; with virally co-expressed GCN5 acetyltransferase; inhibition, % at 15.6 µM; 0.17% of 350,000 active; AID 651687;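 active means every replicate shows inhibition of at least 40%; inconclusive means mean inhibition at least 40% but some replicate below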;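 further: 0% = neutral control wells and 100% = positive control wells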
PglD inh: PglD (C. jejuni) enzyme inhibition | inhibition, % at 12.5 µM | purified PglD enzyme, DTNB colorimetric CoA detection | 0.098% of 360,000 active; in the data active means inhibition above about 16%, passing the limit was not always enough; inconclusive means no clear call, values can overlap the other calls
C2C12 statin: suppressors of simvastatin-induced myotoxicity in C2C12 myotubes; ATP luminescence, 48 h; scaled: DMSO 0, geranylgeraniol control 100; rescue of ATP level, % at 7.49 µM; 0.78% of 330,000 active; AID 602340;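 active means mean ATP rescue above about 67%, or every replicate alone reaching that limit, limit read from the data, passing the limit was not always enough; inconclusive means no clear call, values can overlap the other calls; inactive means mean under the limit and some replicate under it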;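 further: myotubes were challenged with 10 µM simvastatin during compound exposure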
E-sel inducer: E-selectin induction on HUVECs | P16581 | 0.37% of 260,000 active | HUVEC E-selectin immunofluorescence imaging; normalized: neutral wells 0, TNF-alpha wells 100 | activation, % at 7.58 µM | AID 686992;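 active means mean E-selectin-positive cell signal at least 10% of the positive control, reached in at least 60% of replicates, without over 20% cell loss; inconclusive means no rule given, readout overlaps actives, possibly toxicity-flagged; inactive means the rest, including those meeting only one limit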
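Material: HUVEC primary endothelial cells; Amount: 3,000 cells per well; Dosing: single concentration; Medium: EGM-2 growth medium on 0.1% gelatin-coated wells; Read-out basis: percent E-selectin-positive cells; Signal: immunofluorescence imaging; Control set: TNF-alpha, DMSO.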
Active calls of the source: *; ? = inconclusive; . = no result given.

The line under a structure holds: esBAF inh, Yeast UUG start, PGC1a acetyl inh, PglD inh, C2C12 statin, E-sel inducer
CCOC(=O)c1ccc(-c2ccc(C=O)o2)cc1
→ 54*, ., ., ., -10, 0
O=C(C[C@@H]1CC[C@H]2[C@@H](COC[C@H](O)CN2Cc2cccc(C(F)(F)F)c2)O1)NCCc1ccccc1
→ -1, 17, -14, -4, 1, 0
CO[C@@H]1CC[C@@H]2CCN(C)C(=O)CCCN(C)C(=O)c3cccc(C#N)c3OC[C@H]1O2
→ 5, ., ., 2, -1, 0
CO[C@H](CN(C)C(=O)c1ccccc1F)[C@H](C)CN([C@H](C)CO)S(=O)(=O)c1ccc(Cl)cc1
→ -4, ., -6, -2, 7, 0
CC(=O)Nc1cnc(-c2cc(C)c(O)c(C)c2)cn1
→ 72*, -8, ., -2, -5, 0
C[C@@H]1CN([C@@H](C)CO)S(=O)(=O)c2ccc(-c3cccnc3)cc2O[C@H]1CN(C)C
→ 5, -22, 13, 4, -5, 0
COc1ccc(O)c(/C=N/NC(=O)c2cccc(N3CCCC3=O)c2)c1
→ 6, -2, 17, -3, 35, 0
COc1cccc(/C=N/NC(=O)c2cccc(N3CCCC3=O)c2)c1
→ 73*, -12, ., 10, 9, 0
CN1C(=O)c2cc(NC(=O)c3ccc(F)cc3)ccc2OC[C@@H]2O[C@@H](CC(=O)N3CCOCC3)CC[C@H]21
→ 6, 11, 5, -2, -7, 0
O=C(Nc1ccc([N+](=O)[O-])cc1)N1CCCCCC1
→ 8, 2, ., -1, -6, 0
CC(C)(C)c1ccc(NC(=O)N2CCCN(c3ccc([N+](=O)[O-])cn3)CC2)cc1
→ 12, 12, -186, -2, 5, 76*
CN(C)C(=O)c1cccc(-c2ccc3c(c2)[C@@H]2[C@@H](CCN2C(=O)Cc2ccncc2)[C@@H](CO)N3)c1
→ 5, -10, 3, 0, -19, 0
O=C(/C=C/N1CCOCC1)c1ccc(-c2ccccc2)cc1
→ 31, -14, 1, -1, 9, .
O=C(/C=C\N1CCOCC1)c1ccc(Br)cc1
→ 47*, -7, ., 5, 24, 0
COc1cccc(CNC(=O)CCC2CCCN(C(=O)c3cc4ccccc4o3)C2)c1 (configuration not stated)
→ 62*, 0, ., -3, 9, 2
COc1cccc(CNC(=O)CCC2CCCN(C(=O)c3ccoc3)C2)c1 (configuration not stated)
→ -4, -5, 2, 0, -2, -1
CCCNC(=O)N(C)C[C@H]1Oc2cc(-c3ccccc3F)ccc2S(=O)(=O)N([C@H](C)CO)C[C@@H]1C
→ -4, 3, -2, 1, -10, 4
CN1CCc2c(sc3c2C(=O)NC(c2cccc(OC(=O)c4cccs4)c2)N3)C1 (configuration not stated)
→ 42*, -17, -4, -5, -35, 0
C[C@@H]1CCCCO[C@@H](CN(C)S(=O)(=O)c2ccccc2)[C@H](C)CN([C@@H](C)CO)C(=O)c2cc(N(C)C)ccc2O1
→ -3, 17, -3, 37, -35, 0
Nn1c(SCC(=O)N2CCN(S(=O)(=O)c3ccccc3)CC2)nnc1-c1cccs1
→ -2, -12, -1, 0, 126*, .

Five compounds already listed, sorted by their value in PglD inh, lowest first:
structure	PglD inh
CO[C@H](CN(C)C(=O)c1ccccc1F)[C@H](C)CN([C@H](C)CO)S(=O)(=O)c1ccc(Cl)cc1	-2
COc1cccc(CNC(=O)CCC2CCCN(C(=O)c3ccoc3)C2)c1 (configuration not stated)	0
CCCNC(=O)N(C)C[C@H]1Oc2cc(-c3ccccc3F)ccc2S(=O)(=O)N([C@H](C)CO)C[C@@H]1C	1
CO[C@@H]1CC[C@@H]2CCN(C)C(=O)CCCN(C)C(=O)c3cccc(C#N)c3OC[C@H]1O2	2
C[C@@H]1CN([C@@H](C)CO)S(=O)(=O)c2ccc(-c3cccnc3)cc2O[C@H]1CN(C)C	4

Later entries
The line under a structure holds: esBAF inh, Yeast UUG start, PGC1a acetyl inh, PglD inh, C2C12 statin, E-sel inducer
CCCn1c(=O)c2ccccc2n2c(SCc3nc4ccccc4s3)nnc12
→ 42*, -25, 5, 1, -3, .
CCOc1ccccc1-n1nnnc1SCc1nc2ccccc2s1
→ 7, -19, -22, 0, -114, .
Cn1c(SCc2nc3ccccc3s2)nnc1-c1cccs1
→ ?, -11, -17, 0, 0, .
CCn1c(SCc2nc3ccccc3s2)nnc1-c1cccs1
→ 50*, -20, 6, -2, -12, .
Cc1ccccc1-n1c(C)nnc1SCc1nc2ccccc2s1
→ 69*, -10, 0, -6, 28, .
C[C@H]1CN([C@@H](C)CO)C(=O)c2cccc(NC(=O)Nc3ccc4c(c3)OCO4)c2O[C@@H]1CN(C)Cc1ccc(Cl)c(Cl)c1
→ ., ., 1, ., ., 0
Cc1cc(C)nc(N(C#N)Cc2ccccc2Cl)n1
→ -4, -35, 1, 0, 69*, 0
C[C@@H]1CN([C@@H](C)CO)C(=O)Cc2cc(NC(=O)Cc3cn(C)c4ccccc34)ccc2O[C@@H]1CN(C)C(=O)Nc1ccc(F)cc1
→ -3, ., 2, ., -13, 0
COc1ccc(S(=O)(=O)N(C)C[C@@H]2Oc3ccc(NC(=O)Nc4cccc5ccccc45)cc3C(=O)N([C@@H](C)CO)C[C@H]2C)cc1
→ 4, -8, -1, ., ., 0
COc1ccc(Cl)cc1NC(=O)C1CCCO1 (configuration not stated)
→ -6, -7, 0, -6, 0, .
CCCNC(=S)Nc1cc2oc3ccccc3c2cc1OC
→ ., -32, ., ., ., 1
CCNC(=S)Nc1cc2oc3ccccc3c2cc1OC
→ 45*, -12, -2, 2, -9, 2
COc1cc2c(cc1NC(=O)C1CCCO1)oc1ccccc12 (configuration not stated)
→ 57*, -1, -10, -4, ., .
CC(C)[C@H](C)NC(=O)N(C)C[C@@H]1OCc2ccccc2-c2ccccc2C(=O)N([C@@H](C)CO)C[C@H]1C
→ -1, ., -51, 0, ., 0
CC(C)(C)C(=O)/C=C(\N)c1ccncc1
→ -20, -15, -11, -6, ., .
COc1ccc(/C(N)=C/C(=O)C(C)(C)C)cc1
→ 58*, ., -13, ., 10, .
C[C@H]1CN([C@@H](C)CO)C(=O)c2cccc(NS(=O)(=O)c3ccc(F)cc3)c2O[C@@H]1CN(C)C(=O)Nc1ccc(F)cc1
→ -9, 2, 4, 3, -8, -1
C[C@@H]1CCCCO[C@@H](CN(C)C(=O)NC2CCCCC2)[C@@H](C)CN([C@@H](C)CO)C(=O)c2cc(NC(=O)NC3CCCCC3)ccc2O1
→ 3, 4, 8, 0, ., 0
CCN1C(=O)/C(=C/N(C)c2ccccc2)OC1=S
→ 39, -7, -4, 1, -1, .
CCN1C(=O)/C(=C\N(C(C)=O)c2ccccc2)OC1=S
→ 45*, -22, 5, 6, -6, .
C[C@@H]1CN([C@H](C)CO)C(=O)Cc2cc(NS(=O)(=O)c3ccc(Cl)cc3)ccc2O[C@H]1CN(C)Cc1ccc2c(c1)OCO2
→ 2, -2, -2, -1, 84*, 1
C[C@@H]1CN([C@@H](C)CO)C(=O)Cc2cc(NS(=O)(=O)c3ccc(Cl)cc3)ccc2O[C@H]1CN(C)Cc1ccc2c(c1)OCO2
→ -3, 9, -18, -1, 99*, 1
C[C@@H]1CN([C@H](C)CO)C(=O)Cc2cc(NS(=O)(=O)c3ccc(Cl)cc3)ccc2O[C@@H]1CN(C)Cc1ccc2c(c1)OCO2
→ -5, 12, -13, 0, 55, 0

Entries of single compounds, quoted from the list.
Entry for O=C(/C=C\N1CCOCC1)c1ccc(Br)cc1 : esBAF inh = 47*; Yeast UUG start = -7; PGC1a acetyl inh = .; PglD inh = 5; C2C12 statin = 24; E-sel inducer = 0
Entry for Cn1c(SCc2nc3ccccc3s2)nnc1-c1cccs1 : esBAF inh = ?; Yeast UUG start = -11; PGC1a acetyl inh = -17; PglD inh = 0; C2C12 statin = 0; E-sel inducer = .
